Experimental data from patent US9527840B2, “Substituted-quinoxaline-type piperidine compounds and the uses thereof” (priority 2007, dated 2016).

Key:
[1] = molecular target: T1, human opioid receptor-like (ORL-1) (Homo sapiens, UniProt P41146); test: In vitro ORL-1 receptor binding assay ([3H]-nociceptin displacement)
[2] = molecular target: recombinant delta opioid receptor (Homo sapiens, UniProt P41143); test: In vitro delta-opioid receptor binding assay ([3H]-Naltrindole displacement)
μ-opioid receptor [3] = molecular target: T2, μ-opioid receptor (Homo sapiens, UniProt P35372); test: In vitro mu-opioid receptor binding assay ([3H]-diprenorphine displacement); conditions: read-out: Ki [Average ± Std Deviation] Opioid Receptor Mu
kappa opioid receptor = kappa opioid receptor (Homo sapiens, UniProt P41145); test: In vitro kappa-opioid receptor functional assay ([35S]GTPγS); type: biochemical; conditions: mean ± SEM; for EC50: read-out: Kappa opioid receptor GTPγS EC50
[4] = molecular target: T1, human opioid receptor-like (ORL-1); test: In vitro ORL-1 receptor functional assay ([35S]GTPγS binding); type: biochemical; conditions: mean ± SEM; for EC50: read-out: ORL-1 GTPγS EC50
μ-opioid receptor [5] = molecular target: T2, μ-opioid receptor; test: In vitro mu-opioid receptor functional assay ([35S]GTPγS); type: biochemical; conditions: mean ± SEM; for EC50: read-out: Mu opioid receptor GTPγS EC50

Compound: O=C(O)c1nc2ccccc2n([C@H]2C[C@H]3CC[C@@H](C2)N3C2CCCCCC2)c1=O
- Ki [1]: 1340 nM

Compound: CN(CC(=O)O)[C@H]1CCN(c2nc3ccccc3n([C@H]3C[C@H]4CC[C@@H](C3)N4C3CCCCCCC3)c2=O)C1
- Ki [1]: 21.5 nM
- Ki [2]: 72500 nM
- Ki (μ-opioid receptor [3]): 8930 nM
- Kappa opioid receptor GTPγS Emax (kappa opioid receptor): 8.0 ± 1%
- EC50 (kappa opioid receptor): > 20000 nM
- ORL-1 GTPγS Emax [4]: 73.3 ± 3.7%
- EC50 [4]: 618 nM

Compound: CC(C)[C@H]1CC[C@@H](N2[C@@H]3CC[C@H]2C[C@@H](n2c(=O)c(C(=O)O)nc4ccccc42)C3)CC1
- Ki [1]: 131 nM
- Ki [2]: 68800 nM
- Ki (μ-opioid receptor [3]): 5300 nM
- ORL-1 GTPγS Emax [4]: 67.8 ± 1.9%
- EC50 [4]: 3570 nM

Compound: O=C(O)c1nc2ccccc2n([C@H]2C[C@H]3CCC[C@@H](C2)N3C23CC4CC(CC(C4)C2)C3)c1=O
- Ki (μ-opioid receptor [3]): 17200 nM
- ORL-1 GTPγS Emax [4]: 60.0 ± 1.7%
- EC50 [4]: 1830 nM

Compound: CC(C)(C)[C@H]1CC[C@H](N2[C@@H]3CC[C@H]2C[C@@H](n2c(=O)c(C(=O)O)nc4ccccc42)C3)CC1
- Ki [1]: 962 nM

Compound: O=C(O)c1nc2ccccc2n([C@H]2C[C@H]3CC[C@@H](C2)N3C23CC4CC(CC(C4)C2)C3)c1=O
- Ki [1]: 15.4 nM

Compound: CC(C)(C)[C@H]1CC[C@@H](N2[C@@H]3CC[C@H]2C[C@@H](n2c(=O)c(C(=O)O)nc4ccccc42)C3)CC1
- Ki [1]: 1190 nM

Compound: O=C(NO)c1nc2ccccc2n([C@H]2C[C@H]3CC[C@@H](C2)N3C2CCCCCCC2)c1=O
- Ki [2]: > 100000 nM
- Mu opioid receptor GTPγS Emax (μ-opioid receptor [5]): 12.5 ± 1.4%
- Kappa opioid receptor GTPγS Emax (kappa opioid receptor): 17%
- EC50 (kappa opioid receptor): 2450 nM
- ORL-1 GTPγS Emax [4]: 127.0 ± 5.3%
- EC50 [4]: 31.3 nM

Compound: O=C(N[C@@H](CO)C(=O)O)c1nc2ccccc2n([C@H]2C[C@H]3CC[C@@H](C2)N3C2CCCCCCC2)c1=O
- Ki [1]: 13.5 nM
- Ki [2]: 26100 nM
- Ki (μ-opioid receptor [3]): 462 nM
- Mu opioid receptor GTPγS Emax (μ-opioid receptor [5]): 9.7 ± 0.6%
- EC50 (μ-opioid receptor [5]): 1750 nM
- Kappa opioid receptor GTPγS Emax (kappa opioid receptor): 8.3 ± 0.3%
- EC50 (kappa opioid receptor): 3850 nM
- ORL-1 GTPγS Emax [4]: 107.7 ± 3.7%
- EC50 [4]: 183 nM

Compound: CC12CC3CC(C)(C1)CC(N1[C@@H]4CCC[C@H]1C[C@@H](n1c(=O)c(C(=O)O)nc5ccccc51)C4)(C3)C2
- Ki [1]: 38.1 nM
- Ki (μ-opioid receptor [3]): 4750 nM
- ORL-1 GTPγS Emax [4]: 68.7 ± 3.4%
- EC50 [4]: 293 nM

Compound: O=C(O)CN[C@H]1CCN(c2nc3ccccc3n([C@H]3C[C@H]4CC[C@@H](C3)N4C3CCCCCCC3)c2=O)C1
- Ki [1]: 29.9 nM
- Ki [2]: > 20000 nM
- Ki (μ-opioid receptor [3]): 16900 nM
- Kappa opioid receptor GTPγS Emax (kappa opioid receptor): 4.3 ± 1.3%
- EC50 (kappa opioid receptor): > 20000 nM
- ORL-1 GTPγS Emax [4]: 59 ± 2%
- EC50 [4]: 471 nM

Compound: O=C(O)c1nc2ccccc2n([C@H]2C[C@H]3CC[C@@H](C2)N3C23C[C@H]4C[C@@H](C2)C[C@](O)(C4)C3)c1=O
- Ki [1]: 912 nM

Compound: O=C(N[C@@H](CO)C(=O)O)C1Nc2ccccc2N([C@H]2C[C@H]3CC[C@@H](C2)N3C2CCCCCCC2)C1=O (stereo partly drawn)
- Ki [1]: 43.7 nM
- Ki [2]: 26000 nM
- Ki (μ-opioid receptor [3]): 422 nM
- EC50 (μ-opioid receptor [5]): 3580 nM
- EC50 (kappa opioid receptor): 4680 nM
- EC50 [4]: 594 nM

Compound: COc1ccc(NC(=O)c2nc3ccccc3n([C@H]3C[C@H]4CC[C@@H](C3)N4C3CCCCCCC3)c2=O)cn1
- Ki [1]: 3.1 nM
- Ki [2]: 1710 nM
- Ki (μ-opioid receptor [3]): 210 nM
- EC50 (μ-opioid receptor [5]): 79300 nM
- Kappa opioid receptor GTPγS Emax (kappa opioid receptor): 8.7 ± 0.3%
- EC50 (kappa opioid receptor): 831 nM
- ORL-1 GTPγS Emax [4]: 94.0 ± 3.6%
- EC50 [4]: 41.3 nM

Compound: CN(CC(=O)O)[C@H]1CCN(c2nc3ccccc3n([C@@]3(C)C[C@H]4CCC[C@@H](C3)N4C3CCCCCCC3)c2=O)C1
- Ki [1]: 22.9 nM
- Ki [2]: 1160 nM
- Ki (μ-opioid receptor [3]): 689 nM
- Mu opioid receptor GTPγS Emax (μ-opioid receptor [5]): 31.7%
- Kappa opioid receptor GTPγS Emax (kappa opioid receptor): 20.0%
- ORL-1 GTPγS Emax [4]: 57.0%

Compound: O=C(O)C1CCN(CCNc2nc3ccccc3n([C@H]3C[C@H]4CC[C@@H](C3)N4C3CCCCCCC3)c2=O)CC1
- Ki [2]: > 20000 nM
- Mu opioid receptor GTPγS Emax (μ-opioid receptor [5]): 4.2%
- EC50 (μ-opioid receptor [5]): 1080 nM
- Kappa opioid receptor GTPγS Emax (kappa opioid receptor): 9%
- EC50 (kappa opioid receptor): 2260 nM
- ORL-1 GTPγS Emax [4]: 38%
- EC50 [4]: 337 nM

Compound: NC(=O)[C@H](CO)Nc1nc2ccccc2n([C@H]2C[C@H]3CC[C@@H](C2)N3C2CCCCCCC2)c1=O
- Ki [1]: 8.6 nM
- Ki [2]: 29200 nM
- Ki (μ-opioid receptor [3]): 196 nM
- Mu opioid receptor GTPγS Emax (μ-opioid receptor [5]): 14%
- EC50 (μ-opioid receptor [5]): 2150 nM
- Kappa opioid receptor GTPγS Emax (kappa opioid receptor): 12.7 ± 2.7%
- EC50 (kappa opioid receptor): 3150 nM
- ORL-1 GTPγS Emax [4]: 83.3 ± 8.0%
- EC50 [4]: 93.1 nM

Compound: O=C(O)CN1CC2CN(c3nc4ccccc4n([C@H]4C[C@H]5CC[C@@H](C4)N5C4CCCCCCC4)c3=O)CC2C1 (stereo partly drawn)
- Ki [2]: > 20000 nM
- Kappa opioid receptor GTPγS Emax (kappa opioid receptor): 0.3%
- EC50 (kappa opioid receptor): > 20000 nM
- ORL-1 GTPγS Emax [4]: 81 ± 3%
- EC50 [4]: 397 nM

Compound: O=C(O)CNC(=O)c1nc2ccccc2n([C@H]2C[C@H]3CC[C@@H](C2)N3C2CCCCCCC2)c1=O
- Ki [1]: 15.7 nM
- Ki [2]: 17600 nM
- Ki (μ-opioid receptor [3]): 488 nM
- Mu opioid receptor GTPγS Emax (μ-opioid receptor [5]): 12.0 ± 0.8%
- EC50 (μ-opioid receptor [5]): 1350 nM
- Kappa opioid receptor GTPγS Emax (kappa opioid receptor): 12.7 ± 1.5%
- EC50 (kappa opioid receptor): 4340 nM
- ORL-1 GTPγS Emax [4]: 102.7 ± 2.7%
- EC50 [4]: 209 nM

Compound: O=C(O)C1(Nc2nc3ccccc3n([C@H]3C[C@H]4CC[C@@H](C3)N4C3CCCCCCC3)c2=O)CCCCC1
- Ki [2]: > 20000 nM
- Ki (μ-opioid receptor [3]): > 20000 nM
- Kappa opioid receptor GTPγS Emax (kappa opioid receptor): 0%
- EC50 (kappa opioid receptor): > 20000 nM
- ORL-1 GTPγS Emax [4]: 39 ± 1%
- EC50 [4]: 1770 nM

Compound: O=C(O)c1nc2ccccc2n([C@H]2C[C@H]3CC[C@@H](C2)N3C2C3CC4CC(C3)CC2C4)c1=O (stereo partly drawn)
- Ki [1]: 89.9 nM
- Ki (μ-opioid receptor [3]): 11000 nM
- ORL-1 GTPγS Emax [4]: 33.3 ± 2.2%
- EC50 [4]: 271 nM

Compound: O=C(O)[C@@H]1CN(CCNc2nc3ccccc3n([C@H]3C[C@H]4CCC[C@@H](C3)N4C34CC5CC(CC(C5)C3)C4)c2=O)C[C@H]1C(=O)O
- Ki [1]: 587 nM

Compound: CCOC(=O)[C@@H]1CN(CCNc2nc3ccccc3n([C@H]3C[C@H]4CCC[C@@H](C3)N4C34CC5CC(CC(C5)C3)C4)c2=O)C[C@H]1C(=O)OCC
- Ki [1]: 493 nM

Compound: CC(C)(C)CC(C)(C)N1[C@@H]2CCC[C@H]1C[C@@H](n1c(=O)c(C(=O)O)nc3ccccc31)C2
- Ki [1]: 2.8 nM
- Ki [2]: > 20000 nM
- Ki (μ-opioid receptor [3]): > 20000 nM
- ORL-1 GTPγS Emax [4]: 105.3 ± 5.7%
- EC50 [4]: 17 nM

Compound: O=C(O)c1nc2ccccc2n([C@H]2C[C@H]3CCC[C@@H](C2)N3C2CCCCCCCCC2)c1=O
- Ki [2]: > 20000 nM
- Kappa opioid receptor GTPγS Emax (kappa opioid receptor): 3.3 ± 1.9%
- EC50 (kappa opioid receptor): > 20000 nM
- ORL-1 GTPγS Emax [4]: 104 ± 4.6%
- EC50 [4]: 11.6 nM

Compound: CC(C)[C@H]1CC[C@H](N2[C@@H]3CC[C@H]2C[C@@H](n2c(=O)c(C(=O)O)nc4ccccc42)C3)CC1
- Ki [1]: 400 nM

Compound: O=C(O)CNCCNc1nc2ccccc2n([C@H]2C[C@H]3CC[C@@H](C2)N3C2CCCCCCC2)c1=O
- Ki [2]: > 100000 nM
- Kappa opioid receptor GTPγS Emax (kappa opioid receptor): 7.7 ± 0.3%
- EC50 (kappa opioid receptor): 4570 nM
- ORL-1 GTPγS Emax [4]: 83%
- EC50 [4]: 357 nM

Compound: O=C(O)[C@@H](CO)Nc1nc2ccccc2n([C@H]2C[C@H]3CC[C@@H](C2)N3C2CCCCCCC2)c1=O
- Ki [2]: 57700 nM
- Mu opioid receptor GTPγS Emax (μ-opioid receptor [5]): 93%
- EC50 (μ-opioid receptor [5]): 1060 nM
- Kappa opioid receptor GTPγS Emax (kappa opioid receptor): 18 ± 2%
- ORL-1 GTPγS Emax [4]: 35.3 ± 2.3%
- EC50 [4]: 43.6 nM

Compound: NC1(C(=O)O)CCN(c2nc3ccccc3n([C@H]3C[C@H]4CC[C@@H](C3)N4C3CCCCCCC3)c2=O)CC1
- Ki [2]: > 20000 nM
- Kappa opioid receptor GTPγS Emax (kappa opioid receptor): 13 ± 2.1%
- EC50 (kappa opioid receptor): 4730 nM
- ORL-1 GTPγS Emax [4]: 34.5 ± 1.6%
- EC50 [4]: 94.4 nM
